Literature values, collected in PMC10855341, “Inhibition of Apoptosis in a Model of Ischemic Stroke Leads to Enhanced Cell Survival, Endogenous Neural Precursor Cell Activation and Improved Functional Outcomes” (International Journal of Molecular Sciences, 2024).

Conditions: cited from earlier work

Substance: zVAD-fmk
- penetration into the brain: poor penetration into the brain
